# Experimental data reported in PubChem BioAssay AID743282 (The Scripps Research Institute Molecular Screening Center, 2014).
# This is a selection; strong and weak results do not stand in their true shares. Activity calls are given as the source filed them.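 Rule for the calls: active = average inhibition above the solvent-only control mean plus 3 SD (cut at about 6% in these data); inactive = the rest.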
# Assay: 535nm fluorescence optical interference, confirmation, artefact control for HGIII-sPLA2 inhibitor project, biochemical, QFRET (AID 743282);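 note: 0% = DMSO with substrate plus product and 100% = DMSO with substrate alone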
# Conditions: BODIPY FL product fluorescence interference, at 12.2 µM, active compounds read high
row,SMILES,inhibition
1,O=[N+]([O-])c1cc(Oc2ccc([N+](=O)[O-])cc2C(F)(F)F)cc([N+](=O)[O-])c1,inactive: 2.49%
